The conditions of data set [1]: in water; cited from earlier work.
The next data set has as its system A. facilis 72W. As to the kind of experiment: Reduction in viable cells on exposure to mutagenic agent. The following applies: 100 μg/mL, approximately 30 minutes.

With ammonium ion, in data set [1], the pKa (ammonium ion) was 9.25.

In the case of `CN(N=O)C(=N)N[N+](=O)[O-]`, the “reduction in viable cells in the culture” value in the data set with A. facilis 72W was 99.9%.

The values above are taken from US5858736A, “Preparation of lactams from aliphatic α,ω-dinitriles” (priority 1996, dated 1999).
